# Laboratory results as given in BindingDB's records for doi:10.1016/j.vascn.2014.07.002 (University of Oxford, 2014).
# Protein sequences, listed by entry. Tags and fused reporters are not part of them. Lines headed by an entry give the natural chain unless they say otherwise; changes in a name come on top.
# UniProt Q12809: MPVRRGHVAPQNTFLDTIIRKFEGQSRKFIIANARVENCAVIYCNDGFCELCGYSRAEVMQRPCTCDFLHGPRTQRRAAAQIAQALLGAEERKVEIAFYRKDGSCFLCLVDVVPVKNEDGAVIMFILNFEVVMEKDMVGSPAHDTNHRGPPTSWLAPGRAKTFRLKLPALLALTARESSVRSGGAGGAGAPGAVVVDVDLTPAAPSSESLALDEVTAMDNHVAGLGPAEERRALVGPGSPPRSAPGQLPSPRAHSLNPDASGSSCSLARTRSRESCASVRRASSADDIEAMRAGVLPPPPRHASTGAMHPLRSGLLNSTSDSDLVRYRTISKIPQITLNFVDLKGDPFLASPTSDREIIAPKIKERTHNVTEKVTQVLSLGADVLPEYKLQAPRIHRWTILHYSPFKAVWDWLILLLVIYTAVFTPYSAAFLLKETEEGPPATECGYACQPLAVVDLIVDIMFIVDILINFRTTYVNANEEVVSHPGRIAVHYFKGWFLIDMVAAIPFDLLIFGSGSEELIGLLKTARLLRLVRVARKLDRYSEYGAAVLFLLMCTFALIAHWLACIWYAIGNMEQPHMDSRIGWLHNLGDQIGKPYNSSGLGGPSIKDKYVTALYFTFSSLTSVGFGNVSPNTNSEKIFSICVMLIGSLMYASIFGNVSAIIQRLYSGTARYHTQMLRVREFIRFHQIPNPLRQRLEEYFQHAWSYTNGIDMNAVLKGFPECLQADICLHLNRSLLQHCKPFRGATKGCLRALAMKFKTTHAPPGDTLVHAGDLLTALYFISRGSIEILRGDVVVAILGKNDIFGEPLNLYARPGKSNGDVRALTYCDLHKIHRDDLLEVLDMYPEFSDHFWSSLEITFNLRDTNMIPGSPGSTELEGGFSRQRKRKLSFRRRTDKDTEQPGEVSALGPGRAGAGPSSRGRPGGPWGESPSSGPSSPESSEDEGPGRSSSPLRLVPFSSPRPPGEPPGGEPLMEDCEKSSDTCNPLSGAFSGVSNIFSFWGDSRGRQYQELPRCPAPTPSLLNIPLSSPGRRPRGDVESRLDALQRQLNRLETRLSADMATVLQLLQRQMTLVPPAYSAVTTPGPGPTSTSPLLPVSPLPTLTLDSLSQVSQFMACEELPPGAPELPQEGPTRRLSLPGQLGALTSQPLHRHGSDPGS
# Biological target: Potassium voltage-gated channel subfamily H member 2 (Homo sapiens, UniProt Q12809)
# Assay: Inhibition of rapid delayed inward rectifying potassium current (IKr) measured using manual patch clamp assay
structure (smiles),measurement,value
CO[C@H]1C[C@@H]2CC[C@@H](C)[C@@](O)(O2)C(=O)C(=O)N2CCCC[C@H]2C(=O)O[C@H]([C@H](C)C[C@@H]2CC[C@@H](OCCO)[C@H](OC)C2)CC(=O)[C@H](C)/C=C(\C)[C@@H](O)[C@@H](OC)C(=O)[C@H](C)C[C@H](C)/C=C/C=C/C=C/1C [CHEBI:68478],pIC50,3.30

# pIC50: −log10 of the molar value.
